50 molecules from PubChem BioAssay AID602247 (The Scripps Research Institute Molecular Screening Center, 2012) can be followed below.

Only a part is listed here, and it is no random draw. Some salts or complexes appear as unconnected parts, following the source record. The source made the active and inactive calls.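 Rule for the calls: active = activation above the run cutoff, the mean activation of all test compounds plus 3 SD (cut at about 40% in these data); inactive = the rest.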

This test in a line: ATP EC20 calcium response enhancers, parental CHO-K1 – cell-based, Fluo-8 calcium fluorescence, full deck, 1536-well, counter-screen for M1 PAM project, primary screen (AID 602247).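 Note: peak over basal fluorescence ratio in a 140 s read after ATP addition.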 The note with it: parental CHO-K1, ATP EC20, Fluo-8 calcium fluorescence; at 3 µM; hits give high values; 0% at ATP EC20, 100% at ATP max. In general terms: Counterscreens check selectivity or assay interference.
For the molecule `CP(=O)(Nc1ccccn1)Oc1ccccc1` (stereo not given), the activation was inactive: 3.38%.

Turning to `COc1ccccc1OP(C)(=O)Nc1ccc(C)cc1C` (stereo not given), the activation was inactive: 2.83%.

For `O=[N+]([O-])c1cc([N+](=O)[O-])c(Nc2ccccn2)c([N+](=O)[O-])c1`, the activation is inactive: 5.85%.

For `Cc1c(NP(C)(=O)Oc2ccc(C(C)C)cc2)c(=O)n(-c2ccccc2)n1C` (stereo not given), the activation was inactive: 5.06%.

For the molecule `COc1ccc(OP(C)(=O)Nc2ccccc2Br)cc1` (stereo not given), the activation is inactive: 22.6%.

In the case of `COc1ccccc1OP(C)(=O)Nc1ccc(C)c(C)c1` (stereo not given), the activation is inactive: 1.23%.

`O=C1C(O)=C([N+](=O)[O-])C(=O)C(O)=C1[N+](=O)[O-]`: the activation was inactive: 21.6%.

For `Cc1cc(C)cc(OP(C)(=O)Nc2cccc(C(F)(F)F)c2)c1` (stereo not given), the activation was inactive: 12.3%.

Take `CP(=O)(OCCOc1ccccc1)OCCOc1ccccc1`: the activation was inactive: 14.8%.

For `CCCCCCCCCCCCCCCC1C[N+](C)(C)CCOP(C)(=O)O1` (stereo not given), the activation is inactive: 19.8%.

As for `CP(=O)(Nc1ccc(Cl)cc1Cl)Oc1ccccc1` (stereo not given), the activation is inactive: 11.1%.

As to `CP(=O)(OC12CC3CC(CC(C3)C1)C2)OC12CC3CC(CC(C3)C1)C2`, the activation was inactive: 11.8%.

As to `CCOC(=O)c1ccc(NP(C)(=O)Oc2ccc(Cl)cc2)cc1` (stereo not given), the activation was inactive: 20.1%.

`CP(=O)(Oc1ccccc1)N1CCOC1=O` (stereo not given): the activation is inactive: 19.4%.

In the case of `CCc1ccc(OP(C)(=O)Nc2cccnc2)cc1` (stereo not given), the activation is inactive: 5.68%.

As for `COc1ccccc1OP(C)(=O)Nc1c(C)n(C)n(-c2ccccc2)c1=O` (stereo not given), the activation was inactive: -6.33%.

For `O=C(OCCCN1CCCC1)C(O)(c1ccccc1)C1CCCCC1` (stereo not given), the activation is inactive: 16.3%.

For the molecule `CCN(CC)CC(O)COC(=O)C(O)(c1ccccc1)C1CCCCC1` (stereo not given), the activation was inactive: 0.24%.

Turning to `COc1ccc(OP(C)(=O)Nc2ccc(Br)cc2)cc1` (stereo not given), the activation was inactive: 12.9%.

For `CN(C)C(=O)c1c([N+](=O)[O-])cc([N+](=O)[O-])cc1[N+](=O)[O-]`, the activation is inactive: 7.76%.

For `CP(=O)(Nc1ccc(Cl)cc1)Oc1ccc(F)cc1` (stereo not given), the activation was inactive: -4.55%.

As to `CC(C)(C)c1ccc(OP(C)(=O)O)cc1`, the activation is inactive: 15.2%.

Regarding `COc1ccccc1OP(C)(=O)Nc1ccccc1Br` (stereo not given), the activation was inactive: 9.54%.

For `CCOP(C)(=S)SCC(=O)NC(C)(CC)C(=O)O` (stereo not given), the activation is inactive: 13.5%.

With `CP(=O)(Nc1ccc(SC(F)(F)F)cc1)Oc1ccc(F)cc1` (stereo not given), the activation is inactive: 7.89%.

For the molecule `O=[N+]([O-])c1cc([N+](=O)[O-])c(C(F)(F)F)c([N+](=O)[O-])c1O`, the activation was inactive: -2.88%.

As to `Cc1ccccc1NP(C)(=O)Nc1ccccc1C`, the activation is inactive: 13.6%.

Take `CP(=O)(Nc1ccc2c(c1)OCCO2)Oc1ccccc1` (stereo not given): the activation was inactive: 12.7%.

On to `COc1ccc(NP(C)(=O)Oc2ccccc2OC)cc1` (stereo not given), for which the activation is inactive: -3.81%.

Regarding `CN(C)CCOC(=O)C(O)(c1ccccc1)C1CCCCC1` (stereo not given), the activation is inactive: 0.93%.

For the molecule `CN(C)C1(CNC(=O)c2ccc(Cl)c(S(N)(=O)=O)c2)CCCCC1`, the activation was inactive: 13.7%.

For `COc1ccc(OP(C)(=O)Nc2cccc(Br)c2)cc1` (stereo not given), the activation is inactive: -8.94%.

Consider `Cc1c(C(c2ccc3c(c2)OCO3)c2c(C)n(C)n(-c3ccccc3)c2=O)c(=O)n(-c2ccccc2)n1C.O=[N+]([O-])c1cc([N+](=O)[O-])c(O)c([N+](=O)[O-])c1`, for which the activation was inactive: 27.4%.

On to `O=[N+]([O-])c1cc([N+](=O)[O-])c(NCC2CCS(=O)(=O)C2)c([N+](=O)[O-])c1` (stereo not given), for which the activation was inactive: 20%.

On to `Cc1cc(-c2cccc3ccccc23)c(C)cn1.O=[N+]([O-])c1cc([N+](=O)[O-])c(O)c([N+](=O)[O-])c1`, for which the activation was inactive: 2.14%.

Consider `O=[N+]([O-])c1ccc(OP2(=O)COCCO2)cc1` (stereo not given), for which the activation was inactive: 17.9%.

For the molecule `COc1ccc(OP(C)(=O)Nc2ccc(SC(F)(F)F)cc2)cc1` (stereo not given), the activation is inactive: 23.2%.

With `CCOC(=O)c1ccc(NP(C)(=O)Oc2ccc(F)cc2)cc1` (stereo not given), the activation is inactive: 4.4%.

`CCN(CC)CCCNc1ccccc1[N+](=O)[O-].O=[N+]([O-])c1cc([N+](=O)[O-])c(O)c([N+](=O)[O-])c1`: the activation was inactive: 15.1%.

For the molecule `CCCCCOc1ccc(NP(C)(=O)Oc2ccc(Cl)cc2Cl)cc1` (stereo not given), the activation is inactive: 27.2%.

`O=[N+]([O-])c1cc([N+](=O)[O-])c(OC2CCCCC2O)c([N+](=O)[O-])c1` (stereo not given): the activation is inactive: 20.9%.

In the case of `CP(=O)(Nc1ccccc1)Oc1ccc(F)cc1` (stereo not given), the activation is inactive: 12.6%.

For `CCN(CC)CCCOC(=O)C(O)(c1ccccc1)C1CCCCC1` (stereo not given), the activation was inactive: 13.4%.

Turning to `Cc1c([N+](=O)[O-])cc([N+](=O)[O-])c(Br)c1[N+](=O)[O-]`, the activation was inactive: 14.2%.

For the molecule `CC(C)c1ccc(OP(C)(=O)Nc2ccc(SC(F)(F)F)cc2)cc1` (stereo not given), the activation was inactive: 20.3%.

On to `CP(=O)(Nc1ccccc1F)Oc1ccccc1` (stereo not given), for which the activation was inactive: -1.63%.

For `O=[N+]([O-])c1cc([N+](=O)[O-])c(Nc2ccc(Cl)cc2)c([N+](=O)[O-])c1`, the activation is inactive: 4.38%.

Turning to `COc1ccc2c(c1O)-c1c(O)c(OC)cc3c1[C@H](C2)[N+](C)(C)CC3.O=[N+]([O-])c1cc([N+](=O)[O-])c([O-])c([N+](=O)[O-])c1[O-]`, the activation is inactive: -4.81%.

`O=C(OCCN1CCN(CCOCc2ccccc2)CC1)C(O)(c1ccccc1)c1ccccc1`: the activation was inactive: 11%.

As for `O=C(OC1CN2CCC1CC2)c1ccc([N+](=O)[O-])cc1` (stereo not given), the activation was inactive: 19.9%.
